{"source": "paper PMC7286548", "about": "(Cell chemical biology, 2020)", "molecular_target": "T1, PI5P4Kα (Homo sapiens, UniProt P48426)", "T1 sequence (P48426 1-406)": "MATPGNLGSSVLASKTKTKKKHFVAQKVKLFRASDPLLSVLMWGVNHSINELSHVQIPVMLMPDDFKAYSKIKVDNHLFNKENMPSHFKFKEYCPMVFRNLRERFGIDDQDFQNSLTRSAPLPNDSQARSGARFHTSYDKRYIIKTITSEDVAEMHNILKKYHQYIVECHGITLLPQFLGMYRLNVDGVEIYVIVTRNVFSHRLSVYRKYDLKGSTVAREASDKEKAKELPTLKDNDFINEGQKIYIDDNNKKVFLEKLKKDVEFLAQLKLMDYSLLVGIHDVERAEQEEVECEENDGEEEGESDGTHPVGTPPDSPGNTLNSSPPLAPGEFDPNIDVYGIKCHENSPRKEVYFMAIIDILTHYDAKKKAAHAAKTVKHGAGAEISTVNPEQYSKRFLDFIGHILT", "test": "ADP-Glo kinase assay", "format": "biochemical", "conditions": "fixed time-point ADP-Glo, apparent IC50, 5 μM ATP", "data": [{"compound": "CN(C)C/C=C/C(=O)Nc1ccc(C(=O)Nc2cccc(Nc3cc(-c4c[nH]c5ccccc45)ncn3)c2)cc1", "note": "[THZ-P1-2]", "values": [{"measurement": "IC50", "value": 190, "unit": "nM"}]}]}
